From patent US8440814B2, “Derivatives of cyclodextrins, process for their preparation and their use in particular for solubilizing pharmacologically active substances” (Centre National de la Recherche Scientifique, priority 2003, dated 2013)
Read-outs that look alike come from different tables or passages of the source.

Target: concanavalin A (ConA) lectin (Canavalia ensiformis, UniProt P02866)
Assay type: binding
Protocol: The affinity of the thioureidocysteaminyl-cyclodextrins of the invention for specific membrane lectins was evaluated in vitro following the ELLA (Enzyme-Linked Lectin Assay) protocol. […] 2002, 102, pp. 555-578. This technique measures the capacity of a soluble mono- or oligosaccharide ligand to inhibit the association between a complementary lectin and another reference ligand fixed to a plastic support microplate.
The IC50 values are inversely proportional to the respective affinities. […]
In order to determine the optimal lectin concentration for inhibition studies, 100 μL of a series of concanavalin A solutions marked with radish peroxidase of 10^−1 to 10^−5 mg·mL^−1 in PBS is added to the cells loaded with mannan, and treated as indicated above. […] The reaction is stopped after 20 minutes by adding 50 μL/cell of sulphuric acid 1 M and the absorbances are measured at 415 nm using an ELISA reader. […]
In a series of experiments ConA marked with radish peroxidase in an appropriate concentration as indicated above (60 μL/cell) is added to the solutions of each compound (60 μL/cell) in PBS sequentially diluted twice, in a Nunclon™ (Delta) microtitre plate which is incubated at 37° C. for 1 hour. […] After 20 minutes, the reaction is stopped (sulphuric acid) and the absorbances are measured. The percentage of inhibition is calculated with the formula: […]

Substance	IC50 (read-out: IC50)	IC50
heptakis[6-S-[2-N′-[2,2,2-tris[5-(1-thio-α-D-mannopyranosyl)-2-oxapentyl]ethyl]thioureido]ethyl-6-thio]cyclomaltoheptaose [Compound No. 4]	5 µM	
heptakis[6-S-[2-N′-[2,2,2-tris[5-(1-thio-β-D-glucopyranosyl)-2-oxapentyl]ethyl]thioureido]ethyl-6-thio]cyclomaltoheptaose [Compound No. 5]		n.i.^a
